Tests used:
[1] = molecular target: PI3-kinase p110-delta/p85-alpha (Homo sapiens, UniProt O00329); test: Inhibition of P110delta/p85alpha; format: protein-complex assay
[2] = Inhibition of PI3K-dependent Akt phosphorylation at T308 residue in human PC3 cells; format: cell-based; settings: PC-3
[3] = molecular target: Phosphatidylinositol 4,5-bisphosphate 3-kinase catalytic subunit gamma isoform (Homo sapiens, UniProt P48736); test: Inhibition of P110gamma

The chains behind the UniProt entries cited, without tags or fusion partners. Where a name states a change or a piece, a line headed by the entry shows the natural chain unless it says otherwise.
UniProt O00329: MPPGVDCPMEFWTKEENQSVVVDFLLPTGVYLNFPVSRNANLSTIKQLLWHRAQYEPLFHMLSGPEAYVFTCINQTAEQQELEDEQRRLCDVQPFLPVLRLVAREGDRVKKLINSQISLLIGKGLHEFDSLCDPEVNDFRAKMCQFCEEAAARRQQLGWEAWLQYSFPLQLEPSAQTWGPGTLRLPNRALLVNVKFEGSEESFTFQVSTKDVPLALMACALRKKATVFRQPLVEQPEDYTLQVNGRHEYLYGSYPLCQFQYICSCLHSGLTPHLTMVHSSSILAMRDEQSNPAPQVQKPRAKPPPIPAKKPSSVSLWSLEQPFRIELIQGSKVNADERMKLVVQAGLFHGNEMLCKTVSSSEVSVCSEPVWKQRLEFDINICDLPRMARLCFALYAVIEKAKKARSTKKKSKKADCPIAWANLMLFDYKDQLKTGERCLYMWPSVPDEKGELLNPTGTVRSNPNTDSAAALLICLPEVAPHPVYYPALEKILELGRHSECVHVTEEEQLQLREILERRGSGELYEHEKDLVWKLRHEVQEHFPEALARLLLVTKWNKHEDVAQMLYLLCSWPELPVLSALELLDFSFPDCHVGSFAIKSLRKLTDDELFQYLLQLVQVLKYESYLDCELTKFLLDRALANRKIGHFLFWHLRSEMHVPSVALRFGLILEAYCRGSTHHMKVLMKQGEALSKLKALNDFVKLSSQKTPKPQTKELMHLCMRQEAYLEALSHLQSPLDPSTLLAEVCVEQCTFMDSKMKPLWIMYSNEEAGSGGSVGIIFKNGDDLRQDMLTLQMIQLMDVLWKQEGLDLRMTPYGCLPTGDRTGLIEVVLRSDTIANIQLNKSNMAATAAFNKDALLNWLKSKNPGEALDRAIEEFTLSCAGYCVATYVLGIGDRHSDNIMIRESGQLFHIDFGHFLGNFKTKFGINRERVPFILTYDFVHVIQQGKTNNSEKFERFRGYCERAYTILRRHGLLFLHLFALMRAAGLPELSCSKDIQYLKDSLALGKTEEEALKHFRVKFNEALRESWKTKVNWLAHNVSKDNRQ
UniProt P48736: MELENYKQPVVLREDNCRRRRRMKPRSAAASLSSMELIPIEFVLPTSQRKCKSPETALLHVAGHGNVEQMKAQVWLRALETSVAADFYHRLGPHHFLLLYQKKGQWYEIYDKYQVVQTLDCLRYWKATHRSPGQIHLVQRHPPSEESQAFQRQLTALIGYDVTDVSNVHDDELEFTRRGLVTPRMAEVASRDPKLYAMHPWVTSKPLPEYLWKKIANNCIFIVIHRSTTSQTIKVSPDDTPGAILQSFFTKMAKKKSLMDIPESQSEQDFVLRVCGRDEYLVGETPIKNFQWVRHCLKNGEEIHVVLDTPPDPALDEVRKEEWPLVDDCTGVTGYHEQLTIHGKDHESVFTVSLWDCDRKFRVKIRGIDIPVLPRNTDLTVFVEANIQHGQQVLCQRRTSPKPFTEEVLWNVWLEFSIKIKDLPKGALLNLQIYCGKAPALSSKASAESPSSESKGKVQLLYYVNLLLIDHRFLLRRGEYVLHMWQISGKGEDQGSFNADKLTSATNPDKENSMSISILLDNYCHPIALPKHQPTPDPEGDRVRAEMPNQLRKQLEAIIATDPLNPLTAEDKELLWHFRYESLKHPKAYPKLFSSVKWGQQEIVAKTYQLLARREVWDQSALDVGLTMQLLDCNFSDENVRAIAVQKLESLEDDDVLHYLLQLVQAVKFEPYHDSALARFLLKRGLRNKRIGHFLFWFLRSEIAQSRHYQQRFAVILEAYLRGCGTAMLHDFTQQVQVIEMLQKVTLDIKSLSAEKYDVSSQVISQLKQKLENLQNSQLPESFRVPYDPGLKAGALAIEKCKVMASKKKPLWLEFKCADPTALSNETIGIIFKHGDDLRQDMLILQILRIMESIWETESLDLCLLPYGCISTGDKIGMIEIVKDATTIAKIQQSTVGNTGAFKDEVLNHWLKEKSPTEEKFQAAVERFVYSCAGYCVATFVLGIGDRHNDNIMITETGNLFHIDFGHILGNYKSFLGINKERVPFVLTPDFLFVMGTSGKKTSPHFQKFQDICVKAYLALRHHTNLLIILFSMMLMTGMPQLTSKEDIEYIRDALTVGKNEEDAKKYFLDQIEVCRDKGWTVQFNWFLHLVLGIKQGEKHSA

IC50 [1]: 1170 nM | EC50 [2]: 1000 nM | IC50 [3]: 1170 nM
Compound: CN1CCC(NC(=O)c2ccc(-c3ccc(-n4c(=O)ccc5cnc6ccc(-c7cnc8ccccc8c7)cc6c54)cc3C(F)(F)F)cc2)CC1

Source: ChEMBL document CHEMBL1795255, “Discovery and optimization of potent and selective benzonaphthyridinone analogs as small molecule mTOR inhibitors with improved mouse microsome stability” (Bioorg Med Chem Lett, 2011)
